Two substances from patent US10166294B2, “Multifunctional forms of polyoxazoline copolymers and drug compositions comprising the same” (priority 2008, dated 2019) can be followed below.

Data set [1] deals with oropharyngeal carcinoma cancer cells (KB). The protocol: Female athymic (Ncr:Nu) mice were implanted subcutaneously with KB tumor fragments and the tumors were allowed to reach a weight range of 160 to 190 mg. […] The control group received normal saline. The animals were weighed and the tumors measured twice weekly after administration of the first drug injection.
For data set [2], the system named is platinum resistant ovarian cancer cells (A2780/DDPt). The protocol:
Female athymic (Ncr:Nu) mice were implanted subcutaneously with A2780/DDPt tumor fragments and the tumors were allowed to reach a weight range of 163 to 189 mg. […] One group of animals was treated with cisplatin at a dose of 8 mg/kg. The control group received normal saline. The animals were weighed and the tumors measured twice weekly after administration of the first drug injection.

The test system of data set [3] is human colorectal cancer cells (HT-29). On the procedure:
Female athymic (Ncr:Nu) mice were implanted subcutaneously with HT-29 tumor fragments and the tumors were allowed to reach a weight range of 162 to 188 mg. […] The control group received normal saline. The animals were weighed and the tumors measured twice weekly after administration of the first drug injection.

The mark [4] stands for this setting: 40, 60 or 90 mg/kg i.v. every fourth day x3.
The mark [5] stands for this setting: all doses (40, 60, 90 mg/kg i.v.).

Turning to “H-(Irino.HCl)10(EOZ)190-T-Folate [Folate-POZ-irinotecan]”, the “Maximum loss in body weight” value in data set [1] (mouse, in vivo) was determined as 2%.

As to “H-(Irino.HCl)10(EOZ)200-T-PA [POZ-irinotecan]”, the “Maximum loss in body weight” value in data set [2] (setting [4]) and in data set [3] (setting [4]) was 2% throughout. For the same substance, the Tolerability result in data set [2] (setting [5]), in data set [1] (setting [5]) and in data set [3] (setting [5]) was “well tolerated” in each case.
